# Experimental data: publication PMC10079235 (PLOS Neglected Tropical Diseases, 2023)
# Assays:
# HCT-8/NC(NTZ) cells = experiment: MTS cytotoxicity (drug tolerance) assay; conditions: after selection by NTZ vs parent cell line
# Description: (§1) Host cell drug tolerance to specified inhibitors was evaluated by 3-(4,5-dimethylthiazol-2-yl)-5-(3-carboxymethoxyphenyl)-2-(4-sulfophenyl)-2H-tetrazolium (MTS) assay. WT and transgenic host cells were seeded in 96-well plates (10,000 cells/well) and cultured for 24 h, followed by the addition of specified compounds at serially diluted concentrations and continued culture for 41 h. After 3 washes with serum-free medium, MTS solution (Saint-Bio, Shanghai, China) was added into the plates (20 μL/well) and incubated at 37°C for 2 h. Optical density at 490 nm (OD490) was measured using a Synergy LX multi-mode reader (BioTek, Winooski, VT). Drug tolerance was indicated by half-maximal cytotoxic concentrations (TC50 values) calculated by nonlinear regression using 4PL model. Selectivity index (SI) for each compound was determined by the ratio between TC50 and EC50 values (SI = TC50/EC50).
# Surviving cells were allowed to recover in drug-free medium for 3–5 d to near confluence (round 1). The selection/recovery cycle were repeated once (round 2). […] Finally, all cells were cultured at the final selection concentrations of PTX or NTZ for ≥7 d, followed by culture in drug-free medium for 14 d. At this time point, cells were used for cytotoxicity and efficacy assays or cryopreserved in a liquid nitrogen tank. […]
# HCT-8/MDR1(PTX) cells = conditions: after selection by PTX
# Description: as §1
# (§2) Surviving cells were allowed to recover in drug-free medium for 3–5 d to near confluence (round 1). The selection/recovery cycle were repeated once (round 2). […] The resulting cell lines after PTX or NTZ selection were designated as WT(PTX), NC(PTX) and MDR1(PTX), or WT(NTZ), NC(NTZ) and MDR1(NTZ), respectively (Tables 1 and S2).
# HCT-8/NC(PTX) cells = experiment: MTS cytotoxicity (drug tolerance) assay; conditions: after selection by PTX
# Description: as §1, §2
# HCT-8/MDR1(NTZ) cells = experiment: MTS cytotoxicity (drug tolerance) assay; conditions: after selection by NTZ
# Description: as §1, §2
SMILES,Fold increase of TC50 NC(NTZ) vs. NC (HCT-8/NC(NTZ) cells),TC50 (HCT-8/MDR1(PTX) cells),TC50 (HCT-8/NC(PTX) cells),TC50 (HCT-8/MDR1(NTZ) cells)
CC(=O)Oc1ccccc1C(=O)Nc1ncc([N+](=O)[O-])s1 [Nitazoxanide],1.51,–,–,–
"CN(C)C(=O)C(CCN1CCC(O)(c2ccc(Cl)cc2)CC1)(c1ccccc1)c1ccccc1 [Loperamide, Loperamide HCl]",–,15.34 µM,15.17 µM,15.35 µM

# Structures can show the parent of a compound that is named as a salt.
